This data set is described as follows: Study 101, plasma epinephrine pharmacokinetics. It is filed as in vivo. Conditions: human, 0.5 mg IM, read-out: Cmax (GeoMean). Here is the method: Each patient was provided each treatment of the trial with 72-hour washout periods between each treatment, beginning with a 3.5 mg intranasal dose, followed by a 0.3 mg intramuscular dose, followed by a 0.5 mg intramuscular dose, and concluding with a 5.5 mg intranasal dose, with a safety follow-up performed 3 to 5 days after the final dose was administered. The primary endpoints of the study were pharmacokinetic measurements and assessments of comparative bioavailability, while the secondary endpoints were safety concerns and pharmacodynamic assessments.

As for `CNC[C@H](O)c1ccc(O)c(O)c1` [Epinephrine IM, epinephrine], the Cmax amounted to 0.382 ng/mL.

The Cmax is the highest concentration seen after dosing.

(Values after patent US12605517B1 (Belhaven BioPharma Inc., priority 2024, dated 2026).)
